In patent US11684571B2, “Methods of treating eosinophilic esophagitis” (Ellodi Pharmaceuticals, L.P., priority 2016, dated 2023):

Settings: in vivo
Description: Incidence of treatment-emergent Adverse Events (AEs), AEs leading to withdrawal, and Serious Adverse Events (SAEs) grouped by system organ class (SOC) were calculated as needed. Clinically significant abnormal values for clinical laboratory, AM cortisol (≤138 nmol/L), urinalysis, vital signs, and electrocardiogram (ECG) findings were measured as needed.
A total of 24 subjects were enrolled and randomized to one of six sequences to receive each of the three treatments over the three periods with a 7-day washout between doses.
C. […] These subjects continued fasting for at least 4 hours post-dose. • Subjects on the “Fed” treatment (Treatment B) began a high-fat breakfast 30 minutes after an overnight fast of at least 10 hours. […] Subjects were administered 6.0 mg of ATP-1011 immediately prior to bedtime (4 hours following the standard meal).
Randomization (Day 1): Subjects were randomized to one of six sequences (See Table 15) to receive a single dose of each treatment over three periods, with a 7-day washout between doses.
Treatment Periods: For each period, subjects were in-patients for 5 days (Days 0-4, Days 7-11, Days 14-18) with PK samples collected over 72 hours following each dose. Subjects were checked-in to the CRU the evening prior to each dosing (Day 0, 7, and 14) and received treatment according to the sequence on which they were randomized on Day 1. […]

Compound: CCC(=O)O[C@]1(C(=O)SCF)[C@H](C)C[C@H]2[C@@H]3C[C@H](F)C4=CC(=O)C=C[C@]4(C)[C@@]3(F)[C@@H](O)C[C@@]21C [FP, Fluticasone propionate]
- Cmax ratio of geometric LSmeans: 81.78%
